The conditions of data set [1]: water.
Data set [2] is classed as physicochemical. To be noted: simulated rain solution saturated with the pigment; electrolyte pH about 4.2.

As to Zinc Dibasate Diethylamine [Compound 9], in data set [1], the Solubility result is “.02” and the Solubility description result is “PINS (key: PINS: practically insoluble (<.1 g/100cc H2 O); SS: slightly soluble (.1 to 1 g/100cc H2 O); MS: moderately soluble)”.
Turning to “Zinc Quinizarinate Ethylenediamine [Compound 22]”, in data set [2], the pH is reported as 7.75.

The values are drawn from patent publication US4626283A, “Corrosion and marine growth inhibiting compositions” (Engelhard Corporation, priority 1985, dated 1986).
